This series can be described thus: Hydrogen peroxide stress (2-electron oxidation) forced degradation, HPLC monitored. Conditions: 3% hydrogen peroxide in 50:50 methanol:water, up to 24 hours, ambient and 5° C. temperatures.

On to `Cc1ccc(Cc2cc3c(=O)n([C@H]4CCCC[C@@H]4O)cnc3c3ccccc23)cn1.O=C(O)/C=C/C(=O)O` [3-[(1S,2S)-2-Hydroxycyclohexyl]-6-[(6-methyl-3-pyridinyl)methyl]benzo-[h]quinazolin-4(3H)-one (2E)-2-butenedioate], for which the “degradation in the presence of 3% hydrogen peroxide” value is “less than 0.1%”.

For the origin of these results see patent publication US20180273507A1, “CRYSTAL FORMS OF A M1 RECEPTOR POSITIVE ALLOSTERIC MODULATOR” (Merck Sharp & Dohme Corp., priority 2015, published 2018).
